Source: PubChem BioAssay
hiPSC survival: hiPSC single-cell survival enhancement; ATPlite luminescence; 100% = ROCK inhibitor wells, 0% = DMSO; survival enhancement, % at 20 µM; actives 0.044% (n = 360,000); in the data active means survival enhancement above about 18%;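 further: cells exposed to compounds for 16 hours before the ATP read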
PGC1a acetyl inh: PGC1a acetylation modulation, inhibitor mode | U2OS PGC1a acetylation, AlphaScreen anti-acetyl-lysine; with virally co-expressed GCN5 acetyltransferase | inhibition, % at 15.6 µM | actives 0.17% (n = 350,000) | AID 651687;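 active means every replicate shows inhibition of at least 40%; inconclusive means mean inhibition at least 40% but some replicate below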
Yeast UUG start: yeast start codon fidelity modulation | S. cerevisiae UUG-firefly luciferase reporter, luminescence/redox ratio | activity score, % at 18.7 µM | hit rate 0.13% among 350,000 | AID 602363;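 active means replicate mean at a twofold rise or more, about +100% in these data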;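 further: firefly luciferase made from a UUG start codon reports start codon fidelity; reporter light over untreated wells divided by growth signal over untreated wells; some hits fall short of that in this replicate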
FN deposit inh: fibronectin deposition inhibition | actives 0.086% (n = 350,000) | inhibition, % at 12.6 µM | AH1F fibroblasts, Alexa488-fibronectin deposition fluorescence, overnight;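 active means mean inhibition across replicates of 30% or more, regardless of how many single replicates reach that level; inconclusive means mean under 30% yet at least half of replicates reach 30%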
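Assay system: AH1F fibroblasts / Quantity: 10000 cells per well / Medium: DMEM plus 2% serum, read in PBS / Reagent: labelled fibronectin 24 nM / Dosing: single dose, pinned / Times: 1 h cell attachment, overnight exposure to compound and label / Signal: fluorescence, ex 485 nm, em 525 nm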
C2C12 statin: suppression of simvastatin myotoxicity. AID 602340. rescue of ATP level, % at 7.49 µM. C2C12 myotubes + simvastatin, ATP luminescence, 48 h; scaled: DMSO 0, geranylgeraniol control 100. actives 0.78% (n = 330,000);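 active means mean ATP rescue above about 67%, or every replicate alone reaching that limit, limit read from the data, passing the limit was not always enough; inconclusive means no clear call, values can overlap the other calls; inactive means mean under the limit and some replicate under it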;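 further: myotubes were challenged with 10 µM simvastatin during compound exposure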
Of the large screens only hits and unclear results are named; the others gave an inactive call. In the library only some 0.91% were active in any assay of this set; here they are far more common.

CC(C)CC#Cc1cnc2c(c1)C(=O)N([C@H](C)CO)C[C@@H](C)[C@H](CN(C)C(=O)Cc1ccccc1)O2	C2C12 statin 101 (no result: hiPSC survival)
C[C@H]1CN([C@@H](C)CO)C(=O)c2cc(NS(=O)(=O)c3cccs3)ccc2O[C@@H]1CN(C)S(=O)(=O)c1ccccc1	none (no result: hiPSC survival, FN deposit inh)
COCC(=O)N(C)C[C@H]1Oc2cc(-c3ccccc3F)ccc2S(=O)(=O)N([C@H](C)CO)C[C@@H]1C	none (no result: hiPSC survival, Yeast UUG start)
Cc1ccc(N(C(=O)C2CCC(=O)N2)C2(C(=O)NC3CCCCC3)CCCCC2)cc1 (stereo unspecified)	C2C12 statin 119 (no result: FN deposit inh)
Cc1ccc(N(C(=O)c2ccccn2)C2(C(=O)NC3CCCC3)CCCCC2)cc1	none
COc1ccccc1-c1c(C)nn2c(N3CCC4(CC3)OCCO4)cc(C)nc12	C2C12 statin 85 (no result: FN deposit inh)
O=C(CC(=O)c1cc(Cl)ccc1O)c1ccccc1	none (no result: FN deposit inh)
O=C(c1ccccc1)c1cc(Cl)ccc1N1C(=O)C=CC1=O	FN deposit inh 50 (no result: PGC1a acetyl inh)
Cc1cc(-c2onc(C)c2C(=O)O)no1	none
COC(=O)c1c(C)noc1-c1cc(C)on1	C2C12 statin 102 (no result: FN deposit inh)
O=C(NCC1CCCO1)c1ccc(Cl)c(F)c1F (stereo unspecified)	C2C12 statin 84 (no result: FN deposit inh)
O=C(NCC1CCCO1)c1ccc(C(=O)NCC2CCCO2)cc1 (stereo unspecified)	none (no result: Yeast UUG start, FN deposit inh)
O=C(OC(C(=O)NCc1ccc2c(c1)OCO2)c1ccccc1F)c1ccco1 (stereo unspecified)	C2C12 statin 84 (no result: FN deposit inh)
O=C(OC(C(=O)NCc1ccccc1)c1ccccc1F)c1ccco1 (stereo unspecified)	none (no result: PGC1a acetyl inh)
CCCSc1nc2c(c(=O)[nH]c(=O)n2C)n1C	C2C12 statin 92
CCSc1nc2c(c(=O)[nH]c(=O)n2C)n1C	none
CCOC(=O)Cn1c(N2CCOCC2)nc2c1c(=O)[nH]c(=O)n2C	C2C12 statin 118 (no result: FN deposit inh)
CCCn1c(SCc2ccccc2)nc2c1c(=O)[nH]c(=O)n2C	hiPSC survival 32 (no result: FN deposit inh)
CC=CCn1c(SCc2ccccc2)nc2c1c(=O)[nH]c(=O)n2C	none
CCCCCCn1c(SCCN2CCOCC2)nc2c1c(=O)[nH]c(=O)n2C	hiPSC survival 26 (no result: C2C12 statin)
Cc1ccccc1CN1CC2=C(CCN(Cc3ccccc3)C2=O)N2CCN=C12	none (no result: PGC1a acetyl inh, Yeast UUG start, C2C12 statin)
COCC#Cc1ccc([C@@H]2[C@H]3CN(C(=O)C4CCCCC4)CC(=O)N3[C@H]2CO)cc1	none (no result: hiPSC survival, Yeast UUG start, C2C12 statin)
CCc1n[nH]c2c1/C(=N/O)CCC2	C2C12 statin 87 (no result: FN deposit inh)
O=C(O)/C=C/c1cn(-c2ccccc2)nc1-c1ccccc1	C2C12 statin 90
O=C(Nc1ccc2nc3n(c(=O)c2c1)CCCCC3)c1cc([N+](=O)[O-])ccc1F	none (no result: PGC1a acetyl inh)
O=C(Nc1ccc2nc3n(c(=O)c2c1)CCCCC3)c1c(F)ccc([N+](=O)[O-])c1F	C2C12 statin 204 (no result: PGC1a acetyl inh)
COc1ccc2c3c(n(C)c2c1)[C@@H](CO)N(C(=O)c1ccccn1)CC31CN(C(C)=O)C1	none (no result: hiPSC survival, Yeast UUG start, FN deposit inh, C2C12 statin)
C[C@@H]1CCCCO[C@H](CN(C)Cc2ccccc2)[C@@H](C)CN([C@@H](C)CO)C(=O)c2cc(NC(=O)Nc3cccc4ccccc34)ccc2O1	none (no result: hiPSC survival, C2C12 statin)
Cc1nc2ccccn2c1-c1csc(NCc2ccco2)n1	C2C12 statin 94 (no result: FN deposit inh)
Cc1nc(C)c(-c2csc(NCc3ccco3)n2)s1	none (no result: FN deposit inh)
CCNC(=O)C[C@@H]1C=C[C@H](NC(=O)C2CCOCC2)[C@@H](CO)O1	none (no result: hiPSC survival, FN deposit inh)
O=C(CSCc1cnn(-c2ccccc2)c1-n1cccc1)NCc1cccs1	C2C12 statin 121 (no result: FN deposit inh)
COc1ccc(S(=O)(=O)N(C)C[C@H]2Oc3ccc(NC(=O)Cn4cnnn4)cc3CC(=O)N([C@H](C)CO)C[C@@H]2C)cc1	none (no result: hiPSC survival, FN deposit inh)
O=C1C(N2CCOCC2)=C(n2nnc3ccccc32)C(=O)c2ccccc21	PGC1a acetyl inh 61
O=c1[nH]c2cc(Cl)ccc2n1-c1ccccc1	C2C12 statin 100 (no result: FN deposit inh)
C[C@@H]1CN([C@@H](C)CO)C(=O)c2cc(N(C)C)ccc2O[C@@H]1CN(C)S(=O)(=O)c1ccccc1	none (no result: hiPSC survival, FN deposit inh)
O=C(C[C@H]1C[C@H]2c3cc(NC(=O)c4ccc5c(c4)OCO5)ccc3O[C@H]2[C@@H](CO)O1)NC1CCCCC1	none (no result: hiPSC survival, Yeast UUG start, FN deposit inh)
O=C(CCCCCN1C(=O)c2ccccc2C1=O)Nc1ccc2c(c1)OCCO2	C2C12 statin 109
O=C(CCN1C(=O)c2ccccc2C1=O)Nc1ccc2c(c1)OCCO2	none (no result: FN deposit inh)
Cc1cccc(NC(=O)CCCCCN2C(=O)c3ccccc3C2=O)n1	C2C12 statin 92 (no result: FN deposit inh)
Cc1cccc(NC(=O)CCCN2C(=O)c3ccccc3C2=O)n1	none (no result: PGC1a acetyl inh, FN deposit inh, C2C12 statin)
COc1ccc(CCNC(=O)c2ccc(N3CCCC3=O)cc2)cc1	C2C12 statin 114 (no result: FN deposit inh)
CCCCCSc1nnc(C)c(=O)[nH]1	PGC1a acetyl inh 91 (no result: Yeast UUG start, FN deposit inh, C2C12 statin)
CCCCSc1nnc(C)c(=O)[nH]1	none (no result: FN deposit inh)
C[C@@H]1CN([C@@H](C)CO)C(=O)c2cc(NC(=O)Nc3cccc4ccccc34)ccc2O[C@@H](C)CCCCO[C@H]1CN(C)C	none (no result: hiPSC survival, FN deposit inh)
COc1cc(OC)cc(-c2nc(N)n[nH]2)c1	C2C12 statin 106 (no result: FN deposit inh)
C[C@H]1CN([C@@H](C)CO)C(=O)c2cc(-c3ccncc3)cnc2O[C@@H]1CN(C)Cc1cccnc1	none (no result: hiPSC survival)
O=C1C(=O)N(Cc2cccnc2)C(c2ccccn2)/C1=C(/O)c1ccccc1 (stereo unspecified)	C2C12 statin 135
COc1cccc(CNC(=O)[C@@H]2CCCN2C(=O)[C@H]2CCCCN2S(=O)(=O)c2ccc(OC)c(C)c2)c1	none (no result: PGC1a acetyl inh, Yeast UUG start, C2C12 statin)
COc1ccc(S(=O)(=O)Nc2ccc3c(c2)CC(=O)N([C@H](C)CO)C[C@H](C)[C@@H](CN(C)Cc2ccc(Cl)c(Cl)c2)O3)cc1	C2C12 statin 201 (no result: hiPSC survival, FN deposit inh)
C[C@H](CO)N1C[C@H](C)[C@@H](CN(C)Cc2ccc(Cl)c(Cl)c2)Oc2ccc(NS(=O)(=O)c3ccc(Cl)cc3)cc2CC1=O	C2C12 statin 84 (no result: hiPSC survival)
C[C@H]1CN([C@@H](C)CO)C(=O)Cc2cc(NS(=O)(=O)c3ccc(F)cc3)ccc2O[C@H]1CN(C)Cc1ccc(Cl)c(Cl)c1	none (no result: hiPSC survival, Yeast UUG start, FN deposit inh)
C[C@@H]1CN([C@@H](C)CO)C(=O)Cc2cc(NS(=O)(=O)c3ccc(Cl)cc3)ccc2O[C@H]1CN(C)Cc1ccc(Cl)c(Cl)c1	C2C12 statin inconclusive (no result: hiPSC survival)
C[C@@H]1CN([C@H](C)CO)C(=O)Cc2cc(NS(=O)(=O)c3ccc(Cl)cc3)ccc2O[C@H]1CN(C)Cc1ccc(Cl)c(Cl)c1	C2C12 statin 91 (no result: hiPSC survival, FN deposit inh)
C[C@H]1CN([C@@H](C)CO)C(=O)Cc2cc(NS(=O)(=O)c3ccc(Cl)cc3)ccc2O[C@@H]1CN(C)CC1CCCCC1	C2C12 statin 112 (no result: hiPSC survival, Yeast UUG start, FN deposit inh)
C[C@@H]1CN([C@H](C)CO)C(=O)Cc2cc(NS(=O)(=O)c3ccc(F)cc3)ccc2O[C@H]1CN(C)Cc1ccc(Cl)c(Cl)c1	C2C12 statin 83 (no result: hiPSC survival, Yeast UUG start, FN deposit inh)
CC(C)CN(CC(C)C)c1nn[nH]n1	C2C12 statin 114
CCCCN(CCCC)c1nn[nH]n1	C2C12 statin 96
C[C@@H]1CCCCO[C@H](CN(C)C(=O)c2ccncc2)[C@@H](C)CN([C@H](C)CO)C(=O)c2cc(NC(=O)CCCN(C)C)ccc2O1	none (no result: hiPSC survival, FN deposit inh)
